The text below walks through data of ChEMBL document CHEMBL1140141, “Total synthesis and biological evaluation of the marine bromopyrrole alkaloid dispyrin: elucidation of discrete molecular targets with therapeutic potential” (J Nat Prod, 2008).

In the assay the target is Histamine H2 receptor (Cavia porcellus) (UniProt P47747). The note with it: Brain, 10 uM.

For the compound `CN(C)CCCOc1ccc(CCNC(=O)c2cc(Br)c[nH]2)cc1Br` [DISPYRIN], the inhibition turned out to be 91%.

The term inhibition denotes how much of the control response was suppressed. The low end stands for little suppression, the high end for strong suppression.
